Assay [1] concerns the target T1, CD38 on CD38-positive cell lines (human, UniProt P28907 1-300). As to the kind of experiment: FACS; H929 cells.
Assay [2] has as its target T1, CD38 on CD38-positive cell lines. As to the kind of experiment: FACS; MM1S cells.
Assay [3] has the same target. As to the kind of experiment: FACS; SU-DHL-6 cells.
The target is the same in assay [4]. As to the kind of experiment: FACS; MOLP-8 cells.
The target of assay [5] is human CD38 (human, UniProt P28907 45-300). As to the kind of experiment: SPR.
The target of assay [6] is T1, CD38 on CD38-positive cell lines. As to the kind of experiment: FACS; Ramos cells.
The target is the same in assay [7]. As to the kind of experiment: FACS; Daudi cells.
Assay [8] has the same target. As to the kind of experiment: FACS; Raji cells.
Assay [9] shares this target. As to the kind of experiment: FACS; RPMI 8226 cells.

B1: FTL004, humanized IgG1κ anti-CD38 mAb (antibody, V domains shown)
VH: QVQLVQSGSELKKPGASVKVSCKASGYTFTDYNVHWIRQAPGQGLEWIGYFYPRNGATHYNQKFTGRAVLSADTSVSTAYLQISSLKAEDTAVYFCARGETPGTFPYWGQGTLVTVSS
VL: DIVLTQSPASLAVSPGQRATITCRASESVDNFGITFMHWYQQKPGQPPKLLIYRASNLESGVPARFSGSGSRTDFTLTINPVEANDTANYYCQQSSKDPRTFGQGTKLEIK
Regarding B1, the concentration for a half-maximal effect (EC50) in assay [1] amounted to 0.6 µg/mL; in assay [2], 0.41 µg/mL; in assay [3], 0.436 µg/mL; in assay [4] it was 0.372 µg/mL; in assay [6], 0.401 µg/mL; in [7] it was 0.31 µg/mL. The EC50 in assay [8] is 0.355 µg/mL; in [9], 1.15 µg/mL. Further, the koff in assay [5] was 0.00076 s⁻¹.

These data come from PMC9798557 (2022).
